# Measured values as given in ChEMBL document CHEMBL4706610, “Hydroxypyridinone-Based Iron Chelators with Broad-Ranging Biological Activities” (J Med Chem, 2020).
# The chains behind the UniProt entries cited, without tags or fusion partners.
# UniProt P05067, whole entry: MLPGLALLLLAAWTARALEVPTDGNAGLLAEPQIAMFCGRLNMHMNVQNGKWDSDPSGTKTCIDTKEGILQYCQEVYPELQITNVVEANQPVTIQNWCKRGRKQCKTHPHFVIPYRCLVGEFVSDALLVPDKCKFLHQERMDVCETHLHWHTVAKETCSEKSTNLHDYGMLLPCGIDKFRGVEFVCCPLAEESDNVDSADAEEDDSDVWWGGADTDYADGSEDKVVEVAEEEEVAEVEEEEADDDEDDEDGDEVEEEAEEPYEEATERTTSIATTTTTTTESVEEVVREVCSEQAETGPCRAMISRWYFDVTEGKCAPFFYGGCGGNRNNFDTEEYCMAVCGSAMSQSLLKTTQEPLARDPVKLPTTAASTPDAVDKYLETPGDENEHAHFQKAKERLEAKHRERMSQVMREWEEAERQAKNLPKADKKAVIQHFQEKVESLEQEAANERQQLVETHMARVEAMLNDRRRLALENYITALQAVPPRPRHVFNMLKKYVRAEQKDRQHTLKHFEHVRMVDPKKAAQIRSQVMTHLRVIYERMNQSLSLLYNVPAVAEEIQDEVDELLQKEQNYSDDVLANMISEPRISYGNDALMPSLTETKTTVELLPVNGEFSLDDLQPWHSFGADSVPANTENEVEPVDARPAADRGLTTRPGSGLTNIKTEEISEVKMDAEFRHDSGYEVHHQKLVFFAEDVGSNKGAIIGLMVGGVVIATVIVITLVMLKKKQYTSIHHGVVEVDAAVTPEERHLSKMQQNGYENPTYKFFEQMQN
# Target: Amyloid-beta precursor protein (Homo sapiens, UniProt P05067)
# Experiment: Inhibition of self-induced amyloid beta (1 to 42) (unknown origin) aggregation at 20 uM incubated for 24 hrs by ThT fluorescence assay relative to control
structure (smiles),measurement,value
C#CCN(C)CCCn1ccc(=O)c(O)c1C,inhibition,80.1%
